Tested on: Jurkat (Clone E6-1) cells
Experiment: Inhibition on Jurkat cell proliferation (CellTiter-Glo cell viability)
Details: 72 hours culture
Description: The following method was used to determine the effect of the compounds of the present disclosure on Jurkat cell proliferation. Jurkat (Clone E6-1) cells were purchased from the Cell Resource Center of Shanghai Institutes for Biological Sciences, Chinese Academy of Sciences, and were cultured in RPMI 1640 medium containing 10% fetal bovine serum, 100 U penicillin, and 100 µg/mL streptomycin. Cell viability was measured using a CellTiter-Glo® Luminescent Cell Viability Assay kit (Promega, catalog number G7573).
The experiment was performed according to the kit's manual, briefly summarized as follows: test compounds were first dissolved in DMSO to prepare 10 mM stock solutions, which were then diluted with medium to prepare test samples. The final concentration range of the compounds was from 10000 nM to 1.52 nM. Cells in the logarithmic growth phase were seeded into a 96-well cell culture plate at a density of 1000 cells per well, and test compounds were added. The cells were cultured in a 37°C CO2 incubator for 72 hours. After culturing, 50 µL of CellTiter-Glo detection reagent was added to each well, the plate was shaken for 5 minutes, and allowed to stand for 10 minutes. The luminescence of each well was then measured using a microplate reader in Luminescence mode. The percentage inhibition at each concentration point was calculated by comparison with the control group (0.1% DMSO). Nonlinear regression analysis of compound concentration logarithm versus inhibition rate was performed using GraphPad Prism 9 software to obtain the IC50 values of the compounds for inhibiting cell proliferation, as shown in Table 1. Table 1 IC50 Data for Inhibition on Jurkat Cell Proliferation by the Compounds of the Present Disclosure

IC50 | Compound
16.9 nM | O=C(Nc1ccc(-c2cnn3ccc(Cl)cc23)cn1)C1(c2cc(NS(=O)(=O)C3CC3)ccn2)CC2CC2C1 (stereo not shown)
2.49 nM | CCOc1cncc(-c2sc(C(=O)NC3(c4cc(NS(=O)(=O)C5CC5)ncn4)CC4CC4C3)nc2C)n1 (stereo not shown)
40.8 nM | CCOc1cncc(-c2ccc(NC(=O)C3(c4nccc(NS(=O)(=O)C5CC5)n4)Cc4ccccc4C3)nc2)n1
4.1 nM | CCOc1cncc(-c2ccc(NC(=O)C3(c4cc(NS(=O)(=O)C5CC5)ncn4)CC4CCC(C3)O4)nc2)n1 (stereo not shown)
27.2 nM | CCOc1cncc(-c2ccc(NC(=O)C3(c4cc(NS(=O)(=O)C5CC5)ccn4)Cc4ccccc4C3)nc2)n1
21.5 nM | O=C(NC1(c2cc(NS(=O)(=O)C3CC3)ncn2)CC2CC2C1)c1ncc(-c2cncc(C(F)(F)F)n2)s1 (stereo not shown)
86.1 nM | O=C(NC1(c2cc(NS(=O)(=O)C3CC3)ncn2)CC2CC2C1)c1ncc(-c2cncc(Cl)c2)s1 (stereo not shown)
42.1 nM | CCOc1cncc(-c2ccc(NC(=O)C3(c4cncc(NS(=O)(=O)C5CC5)n4)CC4CC4C3)cc2)n1 (stereo not shown)
41.7 nM | O=C(NC1(c2cc(NS(=O)(=O)C3CC3)ncn2)C[C@H]2CC[C@@H](C1)O2)c1ncc(-c2cnn3ccc(Cl)cc23)s1 (stereo partly shown)
8.45 nM | CCOc1cncc(-c2ccc(NC(=O)C3(c4cc(NS(=O)(=O)C5CC5)ccn4)Cc4ccccc4C3)cc2)n1
57.2 nM | CCOc1cncc(-c2ccc(NC(=O)C3(c4nccc(NS(=O)(=O)C5CC5)n4)CC4CC4C3)c(C)c2)n1 (stereo not shown)
42.8 nM | O=C(Nc1ccc(-c2cnn3ccc(Cl)cc23)cn1)C1(c2cncc(NS(=O)(=O)C3CC3)n2)CC2CC2C1 (stereo not shown)
40.2 nM | CCOc1cncc(-c2ccc(NC(=O)C3(c4cc(NS(=O)(=O)C5CC5)nc(C)n4)CC4CC4C3)cc2)n1 (stereo not shown)
30.1 nM | CCOc1cncc(-c2ccc(NC(=O)C3(c4cnnc(NS(=O)(=O)C5CC5)c4)CC4CC4C3)cc2)n1 (stereo not shown)
44.5 nM | CCOc1cncc(-c2cnc(C(=O)NC3(c4cncc(NS(=O)(=O)C5CC5)n4)CC4CC4C3)s2)n1 (stereo not shown)
49.4 nM | CCOc1cncc(-c2ccc(NC(=O)C3(c4ccnc(NS(=O)(=O)C5CC5)n4)C[C@H]4CC[C@@H](C3)O4)c(F)c2)n1 (stereo partly shown)
11.6 nM | CCOc1cncc(-c2ccc(NC(=O)C3(c4nccc(NS(C)(=O)=O)n4)CC4CC4C3)nc2)n1 (stereo not shown)
63.7 nM | CCOc1cncc(-c2ccc(NC(=O)C3(c4ccnc(NS(=O)(=O)C5CC5)c4)CC4CC4C3)cc2)n1 (stereo not shown)
14.8 nM | CCOc1cncc(-c2ccc(NC(=O)C3(c4ccnc(NS(=O)(=O)C5CC5)n4)C[C@H]4CC[C@@H](C3)O4)nc2)n1 (stereo partly shown)
8.3 nM | CCOc1cncc(-c2nnc(C(=O)NC3(c4cc(NS(=O)(=O)C5CC5)ncn4)CC4CC4C3)s2)n1 (stereo not shown)

IC50 | Compound
48.8 nM | CCOc1cncc(-c2ccc(NC(=O)C3(c4cncc(NS(=O)(=O)C5CC5)c4)CC4CC4C3)cc2)n1 (stereo not shown)
2.79 nM | CCOc1cncc(-c2ccc(NC(=O)C3(c4nccc(NS(=O)(=O)C5CC5)n4)CC4CCC(C3)O4)cc2)n1 (stereo not shown)
5.2 nM | CCOc1cncc(-c2ccc(NC(=O)C3(c4cc(NS(=O)(=O)C5CC5)ccn4)Cc4nccnc4C3)cc2)n1
60.8 nM | CCOc1cncc(-c2ccc(NC(=O)C3(c4ccnc(NS(=O)(=O)C5CC5)n4)[C@@H]4COC[C@@H]43)cc2)n1 (stereo partly shown)
64.9 nM | CCOc1cncc(-c2ccc(NC(=O)C3(c4ccnc(NS(=O)(=O)C5CC5)n4)CC4CC4C3)c(F)c2)n1 (stereo not shown)
16.6 nM | CCOc1cncc(-c2ccc(NC(=O)C3(c4cc(NS(=O)(=O)C5CC5)ncn4)[C@@H]4CCC[C@@H]43)c(F)c2)n1 (stereo partly shown)
3.24 nM | CCOc1cncc(-c2ccc(NC(=O)C3(c4nccc(NS(=O)(=O)C5CC5)n4)C[C@H]4CC[C@@H](C3)O4)nc2)n1 (stereo partly shown)
81.4 nM | CCOc1cncc(-c2cnc(C(=O)NC3(c4ccnc(NS(=O)(=O)C5CC5)n4)CC4CC4C3)s2)n1 (stereo not shown)
11.9 nM | CCOc1cncc(-c2ccc(NC(=O)C3(c4cc(NS(=O)(=O)CC)ncn4)CC4CCC(C3)O4)cc2)n1 (stereo not shown)
50.6 nM | CCOc1cncc(-c2cnc(NC(=O)C3(c4nccc(NS(=O)(=O)C5CC5)n4)CC4CC4C3)c(F)c2)n1 (stereo not shown)
4.79 nM | CCOc1cncc(-c2ccc(NC(=O)C3(c4cc(NS(=O)(=O)CC)ncn4)CC4CC4C3)nc2)n1 (stereo not shown)
37.9 nM | CCOc1cncc(-c2ncc(C(=O)NC3(c4cc(NS(=O)(=O)C5CC5)ncn4)C[C@H]4CC[C@@H](C3)O4)s2)n1 (stereo partly shown)
23 nM | CCOc1cncc(-c2ccc(NC(=O)C3(c4cncc(NS(=O)(=O)C5CC5)n4)CC4CCC(C3)O4)cc2)n1 (stereo not shown)
9.11 nM | CCOc1cncc(-c2ccc(NC(=O)C3(c4cc(NS(=O)(=O)C(F)F)ccn4)CC4CC4C3)nc2)n1 (stereo not shown)
13.4 nM | Cc1ccn2ncc(-c3ccc(NC(=O)C4(c5cc(NS(=O)(=O)C6CC6)ncn5)CC5CC5C4)cc3)c2c1 (stereo not shown)
28.7 nM | O=C(Nc1ccc(-c2cnn3ccc(Cl)cc23)cn1)C1(c2cc(NS(=O)(=O)C3CC3)ncn2)CC2CC2C1 (stereo not shown)
14.1 nM | CCOc1cncc(-c2ccc(NC(=O)C3(c4nccc(NS(=O)(=O)C5CC5)n4)C[C@H]4CC[C@@H](C3)O4)c(OC)c2)n1 (stereo partly shown)
24.4 nM | COc1cncc(-c2cnc(C(=O)NC3(c4cc(NS(=O)(=O)C5CC5)ncn4)CC4CC4C3)s2)n1 (stereo not shown)
4.29 nM | CCOc1cncc(-c2cnc(C(=O)NC3(c4cc(NS(=O)(=O)C5CC5)ncn4)C[C@H]4CC[C@@H](C3)O4)s2)n1 (stereo partly shown)
25.7 nM | CCOc1cncc(-c2ccc(NC(=O)C3(c4nccc(NS(=O)(=O)C5CC5)n4)Cc4ccccc4C3)cc2)n1

IC50 | Compound
31.9 nM | CCOc1cncc(-c2ccc(C(=O)NC3(c4cc(NS(=O)(=O)C5CC5)ncn4)CC4CC4C3)cc2)n1 (stereo not shown)
54.6 nM | CCOc1cncc(-c2ccc(NC(=O)C3(c4ccnc(NS(=O)(=O)C5CC5)n4)C[C@H]4CC[C@@H](C3)O4)c(OC)c2)n1 (stereo partly shown)
26.5 nM | CCOc1cncc(-c2ccc(C(=O)NC3(c4cc(NS(=O)(=O)C5CC5)ncn4)CC4CC4C3)nc2)n1 (stereo not shown)
21.7 nM | CCOc1cncc(-c2ccc(NC(=O)C3(c4ccnc(NS(=O)(=O)C5CC5)n4)CCc4nn(C)cc4C3)cc2)n1 (stereo not shown)
34.8 nM | CCOc1cncc(-c2ccc(NC(=O)C3(c4cc(NS(=O)(=O)C5CC5)ncn4)CC4CCCC4C3)cc2)n1 (stereo not shown)
9.17 nM | CCOc1cncc(-c2ccc(NC(=O)C3(c4cc(NS(=O)(=O)C5CC5)ncn4)CC4CCC(C3)O4)c(OC)c2)n1 (stereo not shown)
2.97 nM | CCOc1cncc(-c2cnc(C(=O)NC3(c4cc(NS(=O)(=O)C5CC5)ccn4)CC4CC4C3)s2)n1 (stereo not shown)
12.1 nM | CCOc1cncc(-c2cnc(C(=O)NC3(c4nccc(NS(=O)(=O)C5CC5)n4)CC4CC4C3)s2)n1 (stereo not shown)
33.4 nM | CCOc1cncc(-c2ccc(NC(=O)C3(c4nccc(NS(=O)(=O)C5CC5)n4)CC4CC4C3)c(C#N)c2)n1 (stereo not shown)
26.9 nM | CCOc1cncc(-c2ccc(NC(=O)C3(c4nccc(NS(=O)(=O)C5CC5)n4)CC4CC4C3)c(OC(F)(F)F)c2)n1 (stereo not shown)
15.6 nM | CCOc1cncc(-c2ccc(NC(=O)C3(c4cc(NS(C)(=O)=O)ncn4)CC4CC4C3)cc2)n1 (stereo not shown)
98.7 nM | CCOc1cncc(-c2cnc(C(=O)NC3(c4nccc(NS(=O)(=O)C5CC5)n4)Cc4ccccc4C3)s2)n1
3.3 nM | CCOc1cncc(-c2ccc(NC(=O)C3(c4cc(NS(=O)(=O)C5CC5)ncn4)[C@@H]4CCC[C@@H]43)cc2)n1 (stereo partly shown)
84.9 nM | 3-(4-(cyclopropanesulfonamido)pyrimidin-2-yl)-N-(4-(6-ethoxypyrazin-2-yl)-2,6-difluorophenyl) bicyclo[3.1.0]hexane-3-carboxamide
24.2 nM | O=C(Nc1ccc(-c2cnn3ccc(Cl)cc23)cc1)C1(c2nccc(NS(=O)(=O)C3CC3)n2)CC2CC2C1 (stereo not shown)
1.37 nM | CCOc1cncc(-c2ccc(NC(=O)C3(c4cc(NS(=O)(=O)C5CC5)ncn4)CC4CCC(C3)O4)cc2)n1 (stereo not shown)
6.96 nM | CCOc1cncc(-c2ccc(NC(=O)C3(c4cc(NS(=O)(=O)C5CC5)ncn4)CC4CC4C3)nc2)n1 (stereo not shown)
67.4 nM | CCOc1cncc(-c2ccc(NC(=O)C3(c4ccnc(NS(=O)(=O)C5CC5)n4)CC4CC4C3)nc2)n1 (stereo not shown)
76.9 nM | COc1ccn2ncc(-c3ccc(NC(=O)C4(c5cc(NS(=O)(=O)C6CC6)ncn5)CC5CC5C4)cc3)c2c1 (stereo not shown)

Compound | IC50
CCOc1cncc(-c2ccc(NC(=O)C3(c4ccnc(NS(=O)(=O)C5CC5)n4)C4CN(C)CC43)cc2)n1 (stereo not shown) | 48.9 nM
CCOc1cncc(-c2ccc(NC(=O)C3(c4cc(NS(=O)(=O)C5CC5)ncn4)[C@@H]4CN(C)C[C@@H]43)cc2)n1 (stereo partly shown) | 40.8 nM
